Measurements: PubChem BioAssay AID540253 (National Center for Advancing Translational Sciences (NCATS), 2011)
Only a part is listed here, and it is no random draw. Inconclusive results are not listed. Calls of active or inactive are those of the source. Calls come from the whole dose curve.

These compounds were tested against Snurportin-1 (Homo sapiens) + GTP-binding nuclear protein Ran (Homo sapiens) + Importin subunit beta-1 (Homo sapiens) (UniProt O95149+P62826+Q14974) (assay: qHTS Assay for Inhibitors of RanGTP induced Rango (Ran-regulated importin-beta cargo) - Importin beta complex dissociation). Conditions: Biochemical FRET Rango-importin beta; at 46.1 µM (top of the series).
Note: % of control where 0% means no effect; nearly all actives have a fitted effect of over 45% in size.

| Compound | activity change, negative = inhibition |
| --- | --- |
| O=[As](O)(c1ccc(O)cc1)c1ccccc1O | inactive: -1.35% |
| C[As](=O)(O)c1cccc(C(=O)O)c1 | inactive: 3.39% |
| O=[N+]([O-])c1ccc(-c2cc([N+](=O)[O-])c(O)c([N+](=O)[O-])c2)cc1 | inactive: 43.9% |
| COc1cc(C(=O)NCC2(N3CCOCC3)CCCCC2)ccc1OCC(C)C | inactive: 1.08% |
| O=[N+]([O-])c1cc([N+](=O)[O-])c(Nc2cccnc2)c([N+](=O)[O-])c1 | inactive: -9.98% |
| O=[N+]([O-])c1ccc2c(c1)C=Nc1ccccc1O2 | inactive: -3.52% |
| Cc1ccc2nc3c(c(C)c2c1)CC(C(Cl)Cl)S3 (centres undefined) | inactive: -7.24% |
| Cc1ccc(OP(=O)(Nc2ccc([N+](=O)[O-])cn2)Oc2ccc(C)cc2)cc1 | inactive: -0.542% |
| CC(C)(C)c1ccc(OP(C)(=O)Nc2ccc(SC(F)(F)F)cc2)cc1 (centres undefined) | inactive: 19.3% |
| Cc1cccc(C)c1OP(C)(N)=O (centres undefined) | inactive: -12.9% |
| COc1ccccc1OP(C)(=O)Nc1ccc(C)cc1 (centres undefined) | inactive: -2.03% |
| COC(=O)C1(C)COP(=O)(N2CCCCCC2)OC1 (centres undefined) | inactive: 10.3% |
| Cc1ccc(NP(C)(=O)Oc2ccccc2)c(C)c1 (centres undefined) | inactive: -0.772% |
| CC(C)c1ccc(OP(=O)(Nc2ccccn2)Oc2ccccc2F)cc1 (centres undefined) | inactive: 27.4% |
| CCOC(=O)c1ccc(NP(C)(=O)Oc2ccccc2)cc1 (centres undefined) | inactive: 17.4% |
| ClCCSc1nnc(-c2cccnc2)o1 | inactive: 1.05% |
| Cc1cc(C)cc(OP(C)(N)=O)c1 (centres undefined) | inactive: 9.76% |
| COc1ccccc1OP(C)(=O)Nc1cc(Cl)ccc1C (centres undefined) | inactive: -13% |
| CC(C)NC(=O)NP(=O)(Oc1ccccc1)Oc1ccccc1 | inactive: 17.2% |
| CCN(CC)C(=S)SC(NC=O)C(Cl)(Cl)Cl (centres undefined) | inactive: 0.281% |
| O=C(OC1CN2CCC1CC2)c1cccc2[nH]cnc12 (centres undefined) | inactive: 2.92% |
| COc1ccc(OP(C)(=O)Nc2cccc(F)c2)cc1 (centres undefined) | inactive: 15.8% |
| O=[N+]([O-])c1cc([N+](=O)[O-])c(-c2ccn[nH]2)s1 | inactive: 1.61% |
| O=C(OC1CN2CCC1CC2)C12CC3CC(CC(C3)C1)C2 (centres undefined) | inactive: 7.8% |
| Cc1cc(=O)[nH]c(N[N+](=O)[O-])n1 | inactive: -0.0903% |
| CCN(CC)CCCOC(=O)C(O)(c1ccccc1)c1ccccc1 | inactive: 8.07% |
| Cc1c2c(nc3ccccc13)SC(C(Cl)Cl)C2 (centres undefined) | inactive: 5.78% |
| COc1ccc2nc(NP(=O)(c3ccccc3)c3ccccc3)sc2c1 | inactive: 0.113% |
| COc1cc(I)ccc1[As](=O)(O)O | inactive: 0.145% |
